The text below walks through data of patent US11744819B2, “Antibiotic cannabinoid-terpene formulations” (priority 2019, dated 2023).

Molecules are shown by their SMILES. Read-outs that look alike come from different tables or passages of the source.

For assay [1], the system named is E. faecium clinical isolate 58C9 (vancomycin and daptomycin resistant). To be noted: E. faecium isolate 58c9.
Assay [2] has as its system E. faecium clinical isolate 55A6 (vancomycin and daptomycin resistant). To be noted: E. faecium isolate 55a6.
For assay [3], the system named is Enterococcus faecium 33D3. To be noted: E. faecium isolate 3303.
The next assay relates to E. faecium VRE 55A6. The class given is cell-based, Enterococcus faecium. From the text:
In therapeutic applications, synergy between active ingredients occurs when an observed combined therapeutic effect is greater than the sum of therapeutic effects of individual active ingredients, or a new therapeutic effect is produced that the active ingredients could not produce alone. […] In this context, the enhancement of therapeutic effect may take the form of increased efficacy or potency and/or decreased adverse effects. The synergistic effect may be mediated in whole or in part by the pharmacokinetics and/or pharmacodynamics of the active ingredients in a subject, so that the amount and proportion of the ingredients in the formulation may be synergistic in vivo. This in vivo synergy may be effected with a formulation that includes the active ingredients in amounts and proportions that are also synergistic in in vitro assays of efficacy. As used herein, the term “synergistically effective amounts” accordingly refers to amounts that are synergistic in vivo and/or in vitro. A numeric quantification of synergy is often expressed as a fractional inhibitory concentration index (FICI), which represents the sum of the fractional inhibitory concentrations (FICs) of each drug tested, where the FIC is determined for each drug by dividing the minimum inhibitory concentration (MIC, the lowest concentration of the drug which prevents visible growth of the bacterium in a standard in vitro assay-standard colorometric assay based on resazurin) of each drug when used in combination by the MIC of each drug when used alone. […]
Pre-cultures of bacteria growing in their corresponding liquid media (defined below) were diluted to an 00600 of 0.0025 and 100 μl was added to 100 μl of medium containing serial 2-fold dilutions of cannabinoid (cannabinoid stocks, in methanol or acetonitrile for acidic forms, were diluted in growth medium) in 96-well plates. Plates were then incubated for 20-24 h at 37° C., and growth was recorded as 00600 in a Thermo Scientific™ Varioskan™ Flash Multimode Reader. […]

In assay [4] the test system is E. faecium clinical isolate 69C6 (vancomycin resistant). To be noted: E. faecium isolate 69C6.

Regarding `C=C(C)[C@@H]1CCC(C)=C[C@H]1c1c(O)cc(CCCCC)cc1O` [CBD, cannabidiol, reference compound], the “Fold reduction in daptomycin MIC in combination with the cannabinoid” value in assay [1] turned out to be 32 Fold; in assay [2] it was 16 Fold; in assay [3], 16 Fold; in assay [4], 4 Fold. The “Max. fold change in MIC” value in the assay on E. faecium VRE 55A6 (pairwise, with daptomycin) is reported as 8 fold; in the assay on E. faecium VRE 55A6 (pairwise, with trans-caryophyllene) it was 2 fold; in the assay on E. faecium VRE 55A6 (triple, with daptomycin and trans-caryophyllene), 8 fold.
